Like-named read-outs stand apart in the source and are kept apart here.

This note sets out measurements from PMC10957775, “Integrated chemical characterization, metabolite profiling, and pharmacokinetics analysis of Zhijun Tangshen Decoction by UPLC-Q/TOF-MS” (Frontiers in Pharmacology, 2024).

Data set [1] is described as follows: Multi-compound pharmacokinetics of ZJTSD in rat serum, semi-quantitative UPLC-Q/TOF-MS (peak area ratio versus time, non-compartmental). The conditions noted are these: prototype compounds of ZJTSD absorbed into rat serum; mean±SD, n=3; in h.
The conditions of data set [2]: rat, in vivo.

For the molecule `O=C1CCCn2c(CO)ccc21` [P34, Polygonatine A], the Tmax in data set [1] stood at 1.67±2.02.
Consider “1-(5-Hydroxym-ethyl-tetrahydro-furan-2-yl)-9H-β-carboline-3-carboxylic acid [P32]”, for which, in data set [1], the “MRT(0→t)” value was determined as 5.02±0.68, the Tmax is listed as 1.67±2.02 and the t1/2 is recorded as 4.52±2.85.
Take `Cc1cc(O)c2c(c1)C(=O)c1cc(C(=O)O)cc(O)c1C2=O` [P19, 6-Methyl-rhein]: in data set [2], the Tmax amounted to 1.67±2.02.
